In PubChem BioAssay AID504490 (NMMLSC, 2011):
The list shows a part of the results, in another mix than the full data. The source made the active and inactive calls.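 The calls were made as follows: active = inhibition above a set limit, near 3 SD of compounds lacking own fluorescence (cut at about 54% in these data); inactive = the rest.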

test system: beta-arrestin 1 C-terminal peptide binding to AP2 beta2-adaptin appendage (human); assay: inhibitors of beta-arrestin/AP2 binding, primary screen, biochemical, GPCR trafficking, flow cytometry (AID 504490); settings: FITC-arrestin peptide / GST-AP2 beads, at 10 µM, hits give high values, AP2 beta2 appendage carries R879A mutation;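 also: plate controls were DMSO wells for no effect and 5 µM unlabelled arrestin peptide for full effect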

Row | SMILES | inhibition
1 | Cc1ccc(OP(=O)(Nc2ccccn2)Oc2ccc(C)cc2)cc1 | inactive: -19.1%
